Data published in patent publication US20220080027A1, “METHODS OF TREATING NEURODEGENERATIVE DISEASES BY TARGETING THE PURINERGIC AND/OR ADENOSINE RECEPTORS” (Board of Regents, The University of Texas System, priority 2020, published 2022).

Legend:
[1] = test system: uninfected PBMCs (lymphocytes and monocytes); assay: Transmigration of uninfected PBMCs across the in vitro BBB model in response to CCL2; assay type: cell-based, human; conditions: uninfected PBMCs preincubated with blocker, CCL2 100 ng/ml, 24 h
Method: (§1) Blood-brain barrier (BBB) model: This in vitro BBB model consists of primary human BMVEC and primary human astrocytes in co-culture on opposite sides of a gelatin-coated, 3 μm pore-size tissue culture insert (Falcon, B D, Franklin Lakes, N.J.) as described by the inventors. Co-cultures were maintained for three days to enable contact between astrocyte endfeet with BMVEC on the opposite side of the model as described. After this, the BBB model was treated with different ATP concentrations (Cat #A1852, Sigma Chemical Co., St. Louis, Mo., USA), and BBB permeability was measured using BSA conjugated to Evans Blue, as described by the inventors.

[2] = test system: HIVADA infected PBMCs (lymphocytes and monocytes); assay: Transmigration of HIVADA infected PBMCs across the in vitro BBB model in response to CCL2; assay type: cell-based, human; conditions: HIV-infected (HIVADA) PBMCs preincubated with blocker, CCL2 100 ng/ml, 24 h
Method: as §1
PBMCs infected with the HIVADA were added to the top chamber of BBB co-cultures without CCL2 in the bottom chamber (HIV).

CCCN(CCC)S(=O)(=O)c1ccc(C(=O)O)cc1 [probenecid] was tested, and the “effect on transmigration of lymphocytes and monocytes induced by CCL2” value (shortened to “effect on transmigration”) [1] was “reduced the transmigration”, the “effect on transmigration” value ([1]; listed as Probenecid) was “reduced transmigration to control levels” and the “effect on transmigration” value [2] was “reduced the transmigration”. For the same compound, the “effect on transmigration” value ([2]; listed as Probenecid) was “prevented transmigration”.
